Bounds are passed on as bounds.

Protein sequences, listed by entry. Tags and fused reporters are not part of them.
UniProt P33535, whole entry, looked up: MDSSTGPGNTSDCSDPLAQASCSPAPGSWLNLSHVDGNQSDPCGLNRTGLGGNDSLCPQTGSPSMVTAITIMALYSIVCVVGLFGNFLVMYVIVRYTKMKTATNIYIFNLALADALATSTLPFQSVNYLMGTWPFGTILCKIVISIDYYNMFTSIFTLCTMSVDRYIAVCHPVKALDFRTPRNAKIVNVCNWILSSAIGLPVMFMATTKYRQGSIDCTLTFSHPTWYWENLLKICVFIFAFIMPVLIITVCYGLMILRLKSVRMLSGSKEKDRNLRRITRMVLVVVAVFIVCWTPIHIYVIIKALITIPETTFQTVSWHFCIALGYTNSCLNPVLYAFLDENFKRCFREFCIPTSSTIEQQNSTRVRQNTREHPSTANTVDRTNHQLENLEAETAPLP
UniProt P32300, whole entry, looked up: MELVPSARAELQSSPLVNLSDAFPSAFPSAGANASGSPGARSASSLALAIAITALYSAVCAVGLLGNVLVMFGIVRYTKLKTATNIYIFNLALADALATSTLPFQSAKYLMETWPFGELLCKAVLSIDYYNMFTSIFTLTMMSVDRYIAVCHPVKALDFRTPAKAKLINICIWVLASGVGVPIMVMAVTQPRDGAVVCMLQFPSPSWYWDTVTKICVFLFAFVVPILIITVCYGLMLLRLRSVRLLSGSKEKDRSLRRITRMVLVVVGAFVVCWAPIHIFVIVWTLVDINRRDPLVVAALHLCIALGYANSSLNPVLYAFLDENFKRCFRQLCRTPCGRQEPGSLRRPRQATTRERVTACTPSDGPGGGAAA

The target in experiment [1] is Mu-type opioid receptor (Rattus norvegicus, UniProt P33535). Put plainly: Binding affinity to rat MOPR expressed in CHO cells. The class given is cell-based. The procedure, abridged:
(§1)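 Competitive displacement of [3H]diprenorphine from membranes of CHO cells stably transfected with rat MOPR or mouse DOPR. Buffer: 50 mM Tris-HCl, pH 7.4, with 1 mM EGTA. Ki values were derived from inhibition curves. Each value is the mean of at least three independent experiments run in duplicate.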

Experiment [2] has as its target Delta-type opioid receptor (Mus musculus, UniProt P32300). Put plainly: Binding affinity to mouse DOPR expressed in CHO cells. The experiment is classed as cell-based. Summed up:
as §1

For the compound `COC(=O)[C@@H]1C[C@H](OC(C)=O)C(=O)[C@H]2[C@@]1(C)CC[C@H]1C(=O)O[C@@H](c3ccoc3)C[C@]21C`, the Ki in experiment [1] and in experiment [2] was over 1 µM in each case.

In general, Ki refers to the dissociation constant of the complex between target and ligand, obtained from inhibition or displacement. A low value points to tighter binding.
